Literature values in publication PMC8900292.

By UniProt entry, the sequences of proteins in these tests, tags left out.
UniProt Q16623, whole entry: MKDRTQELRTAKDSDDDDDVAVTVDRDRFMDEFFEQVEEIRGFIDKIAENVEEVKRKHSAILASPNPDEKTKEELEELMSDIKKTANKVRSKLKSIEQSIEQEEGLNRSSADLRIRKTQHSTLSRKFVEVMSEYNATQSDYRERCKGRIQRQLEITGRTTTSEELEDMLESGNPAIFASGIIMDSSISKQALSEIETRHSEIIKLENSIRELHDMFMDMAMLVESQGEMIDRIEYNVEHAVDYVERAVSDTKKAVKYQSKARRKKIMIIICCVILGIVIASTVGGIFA

Biological target: Syntaxin-1 (UniProt Q16623)

Kd: 1 nM
Substance: Munc18-1 (from UniProt P61764)
